The text below walks through data of ChEMBL document CHEMBL2150892, “Neuroprotective Tri- and Tetracyclic BChE Inhibitors Releasing Reversible Inhibitors upon Carbamate Transfer” (ACS Med Chem Lett, 2012).

By UniProt entry, the sequences of proteins in these tests, tags left out. Where a name states a change or a piece, a line headed by the entry shows the natural chain unless it says otherwise.
UniProt O42275: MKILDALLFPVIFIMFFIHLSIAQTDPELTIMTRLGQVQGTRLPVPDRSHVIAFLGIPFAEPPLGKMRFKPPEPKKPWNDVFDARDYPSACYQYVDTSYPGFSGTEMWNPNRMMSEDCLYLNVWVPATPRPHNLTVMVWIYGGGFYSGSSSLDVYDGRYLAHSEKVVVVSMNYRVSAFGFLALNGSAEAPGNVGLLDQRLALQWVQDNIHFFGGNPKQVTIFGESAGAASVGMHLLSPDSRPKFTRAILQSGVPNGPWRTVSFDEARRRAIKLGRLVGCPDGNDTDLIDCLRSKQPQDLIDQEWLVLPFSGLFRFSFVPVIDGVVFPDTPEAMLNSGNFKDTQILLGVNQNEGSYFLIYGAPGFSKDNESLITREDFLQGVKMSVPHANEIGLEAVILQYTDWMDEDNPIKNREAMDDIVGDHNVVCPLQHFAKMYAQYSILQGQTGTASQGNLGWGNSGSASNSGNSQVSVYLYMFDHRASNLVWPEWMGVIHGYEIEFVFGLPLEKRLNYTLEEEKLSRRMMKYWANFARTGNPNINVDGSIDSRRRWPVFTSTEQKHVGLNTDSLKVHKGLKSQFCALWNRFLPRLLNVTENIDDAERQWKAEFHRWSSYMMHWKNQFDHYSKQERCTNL
UniProt P81908, whole entry: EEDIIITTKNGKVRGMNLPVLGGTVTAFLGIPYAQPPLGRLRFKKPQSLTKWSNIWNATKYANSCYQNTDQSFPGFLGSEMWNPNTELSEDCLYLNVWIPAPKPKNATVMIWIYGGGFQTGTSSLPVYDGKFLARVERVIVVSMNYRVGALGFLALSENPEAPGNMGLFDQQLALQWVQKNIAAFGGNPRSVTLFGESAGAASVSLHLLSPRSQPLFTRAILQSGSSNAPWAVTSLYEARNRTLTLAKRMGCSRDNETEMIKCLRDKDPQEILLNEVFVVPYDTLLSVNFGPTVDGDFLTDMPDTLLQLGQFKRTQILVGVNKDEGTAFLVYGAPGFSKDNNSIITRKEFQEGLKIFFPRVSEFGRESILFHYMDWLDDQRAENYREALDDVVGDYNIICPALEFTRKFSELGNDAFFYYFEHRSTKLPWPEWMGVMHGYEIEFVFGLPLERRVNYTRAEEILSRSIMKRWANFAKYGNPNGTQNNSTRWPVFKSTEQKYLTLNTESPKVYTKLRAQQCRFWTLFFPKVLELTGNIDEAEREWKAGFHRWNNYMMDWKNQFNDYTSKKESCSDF

For assay [1], the target named is T1, Acetylcholinesterase (Electrophorus electricus, UniProt O42275). Briefly: Time dependent inhibition of Electric eel AChE assessed as stability constants of inhibitor-enzyme complex using acetylthiocholine as substrate after 60 mins.
Assay [2] deals with T2, Cholinesterase (Equus caballus, UniProt P81908). The assay is described as follows: Inhibition of equine serum BChE using acetylthiocholine as substrate after 2 mins. The method, boiled down: (§1)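 Enzyme sources were electric eel AChE and equine serum BChE. Values are means of at least three independent determinations. Single-point entries are % inhibition at 100 μM.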
The target in assay [3] is T2, Cholinesterase. The assay is described as follows: Time dependent inhibition of equine serum BChE assessed as stability constants of inhibitor-enzyme complex using acetylthiocholine as substrate after 60 mins.
For assay [4], the target named is T1, Acetylcholinesterase. The assay is described as follows: Inhibition of Electric eel AChE using acetylthiocholine as substrate after 2 mins. In short, it runs like this: as §1

Molecules are shown by their SMILES. pIC50, pKi: −log10 of the molar value.

As a reminder, the pKi is the Ki on a negative log10 scale, so that one unit is a factor of ten. As usually defined, the pIC50 is the IC50 on a negative log10 scale, so that one unit is a factor of ten. Read a low pIC50 as a high IC50.

`CNC(=O)Oc1ccc2c(c1)[C@]1(C)CCN(C)[C@@H]1N2C` [PHYSOSTIGMINE]: the pKi on Acetylcholinesterase [1] is 7.47; on Cholinesterase [3], 7.39. The pIC50 on Cholinesterase [2] was 7.38; against Acetylcholinesterase [4], 7.05.
